Assay results from patent US20070020718A1.

Protein sequences, listed by entry. Tags and fused reporters are not part of them. Residues count along the entry.
UniProt P40337, 54-213, chain 1 of 3: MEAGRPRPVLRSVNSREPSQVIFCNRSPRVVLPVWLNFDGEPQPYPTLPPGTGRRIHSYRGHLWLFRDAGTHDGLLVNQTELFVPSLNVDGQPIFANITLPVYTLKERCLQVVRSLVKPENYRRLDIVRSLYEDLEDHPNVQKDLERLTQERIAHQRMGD

Biological target: GST-VBC protein (VHL-Elongin B-Elongin C complex) (human) (UniProt P40337)

Substance: F-P564 peptide
- fluorescence polarization value: 0.066
